The numbers were not newly measured in US6358491B1, “Somatostatin analogs” (Berlex Laboratories, Inc., priority 1999, dated 2002), which cites them from elsewhere.

For this data set the following is noted: 24 hours post-injection, cited from earlier work.

Take ^111In-DTPA-D-Phe^1-octreotide: the “retention in human liver” value is recorded as “about 3.2 % injected dose”. In addition, for the setting “human”, the retention in kidney entry is on record as “about 3.7 % injected dose” and the retention in spleen entry is on record as “about 3 % injected dose”.
